For test [1], the target named is T1, human 5-hydroxy-tryptamine2C (h5HT2C) receptor (Homo sapiens, UniProt P28335).
T1 construct: expressed in transfected cells; host or cells: CHO (Chinese Hamster Ovary) cells; membranes
Put plainly: 5HT2C Receptor Binding Test Procedure ([125I] DOI). The settings on record: reference compounds; [125I] DOI binding, CHO cell membranes; read-out: Ki value and 95% confidence interval.

Chains of the proteins cited; added tags and fusions are not shown. Residues count along the entry.
UniProt P28335, 33-458: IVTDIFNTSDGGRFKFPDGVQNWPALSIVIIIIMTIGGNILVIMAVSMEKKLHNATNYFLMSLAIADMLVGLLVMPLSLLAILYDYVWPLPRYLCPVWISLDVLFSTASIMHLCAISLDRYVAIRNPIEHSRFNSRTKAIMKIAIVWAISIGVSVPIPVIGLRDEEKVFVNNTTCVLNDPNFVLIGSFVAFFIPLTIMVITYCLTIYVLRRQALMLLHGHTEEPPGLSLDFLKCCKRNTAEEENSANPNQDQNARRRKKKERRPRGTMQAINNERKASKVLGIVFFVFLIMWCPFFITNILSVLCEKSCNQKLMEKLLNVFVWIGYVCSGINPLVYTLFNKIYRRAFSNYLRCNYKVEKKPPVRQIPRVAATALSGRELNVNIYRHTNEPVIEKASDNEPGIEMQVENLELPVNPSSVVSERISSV

Another test concerns the target T2, human 5-HT2C receptor (Homo sapiens, UniProt P28335).
T2 construct: expressed in transfected cells; host or cells: CHO cells
Put plainly: Stimulation of [3H] Inositol Monophosphate Production by 5HT2C Agonists. Format: cell-based.

Consider `Clc1cccc(N2CCNCC2)c1` [mCPP, meta-chlorophenylpiperazine, reference compound], for which the Ki (in general, a dissociation constant, usually derived from enzyme kinetics or from competition with a known ligand) in test [1] was found to be 0.0065 µM. Further, the “EMAX (relative to 5-HT)” value at human 5-HT2C receptor (reference compound, relative to 5-HT) was found to be 60%. Further, the midpoint of the response on human 5-HT2C receptor (reference compounds, [3H] IP1 production in CHO cells), the EC50, lay at 0.0468 µM.

The values above are taken from patent US6476032B2, “2,3,4,4a-tetrahydro-1H-pyrazino[1,2-a]quinoxalin-5(6H)one derivatives” (Wyeth, priority 1998, dated 2002).
